Earlier results as cited in patent US20070264354A1, “TREATMENT OF A WOUND WITH A VASODILATOR” (priority 2006, published 2007).

What was measured:
skin flap = details: pig (Heden et al, 1989); cited from earlier work
[1] = Brain and Cambridge, 1996; cited from earlier work
musculocutaneous flap = details: rat (Kjartannson et al, 1988b); cited from earlier work
human skin [2] = details: microdialysis (Weidner et al, 2000); cited from earlier work
human skin [3] = details: cited from earlier work
[4] = tested on: hamster cheek pouch, rat paw and human skin; details: histamine, leukotrine; nanomolar dose range (Raud et al, 1991); cited from earlier work
wounds = details: intradermally around wounds, rats (Engin, 1998); cited from earlier work
[5] = tested on: surgical or traumatic flaps; details: intravenous, patients with ischemia and/or venous stasis (Jernbeck and Dalsgaard, 1993); cited from earlier work
venous stasis ulcers = details: CGRP and VIP given together by iontophoresis (Gherardini et al, 1998b); cited from earlier work

CGRP: 37 amino acid peptide, potent endogenous vasodilator of the microcirculation
skin flap survival (skin flap): increased skin flap survival
stability in interstitial tissue fluid [1]: stable
cutaneous blood flow in flap (musculocutaneous flap): increased cutaneous blood flow
vasodilatation (human skin [2]): dose-dependent increases in vasodilatation
sensory effects (pain, itch producing) (human skin [3]; Weidner and Wallengren): does not have sensory effects
blood flow (flare reaction) (human skin [3]; intradermal, femtomole doses, humans (Brain et al, 1985)): increased blood flow
edema-promoting action of inflammatory mediators [4]: inhibit edema-promoting action of inflammatory mediators
wound healing, contraction rate (wounds): increasing the contraction rate
tissue circulation by LDF [5]: improved tissue circulation
healing of venous stasis ulcers (venous stasis ulcers): improved healing of venous stasis ulcers
